Target: Human PPARα (Homo sapiens, UniProt Q07869)
Experiment: Human PPARα Reporter Assay (luciferase)
Conditions: read-out: Luciferase IC50; human PPARα reporter cells, overnight incubation, antagonism

Protein sequences, listed by entry. Tags and fused reporters are not part of them.
UniProt Q07869, whole entry: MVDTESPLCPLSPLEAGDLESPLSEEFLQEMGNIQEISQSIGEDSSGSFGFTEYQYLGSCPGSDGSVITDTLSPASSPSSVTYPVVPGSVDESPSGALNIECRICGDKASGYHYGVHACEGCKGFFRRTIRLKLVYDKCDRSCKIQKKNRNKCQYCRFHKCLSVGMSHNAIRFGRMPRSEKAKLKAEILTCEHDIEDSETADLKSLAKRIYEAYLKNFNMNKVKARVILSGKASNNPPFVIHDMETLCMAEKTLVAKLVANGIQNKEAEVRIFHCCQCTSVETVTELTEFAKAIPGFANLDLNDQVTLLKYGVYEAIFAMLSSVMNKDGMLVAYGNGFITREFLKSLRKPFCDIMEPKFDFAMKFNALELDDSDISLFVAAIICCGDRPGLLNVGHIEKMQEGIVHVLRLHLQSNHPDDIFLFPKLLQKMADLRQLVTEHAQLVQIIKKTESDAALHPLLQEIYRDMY

IC50: 407 nM
SMILES: CCn1c(CCCc2ccc(-c3cc(NS(C)(=O)=O)ccn3)cc2)nn(Cc2ccc(C(C)(C)C)cc2)c1=O [Example 40, 1-{[4-(tert-Butyl)phenyl]methyl}-4-ethyl-3-[3-(4-{4-[(methylsulfonyl)amino](2-pyridyl)}phenyl)propyl]-1,2,4-triazolin-5-one]

Source: patent US9505728B2, “Triazolone compounds and uses thereof” (INCEPTION 2, INC., priority 2012, dated 2016)
